{
  "source": "paper PMC11496845",
  "about": "“Preparation, characterization, and in vitro cytogenotoxic evaluation of a novel dimenhydrinate-β-cyclodextrin inclusion complex” (Biomolecules and Biomedicine, 2024)",
  "key": {"PBMCs [1]": {"test_system": "PBMCs", "assay": "Alkaline comet assay, tail intensity", "conditions": "3 h", "method": "Blood was collected by venipuncture into heparinized vacutainers (BD Vacutainer Systems, Plymouth, UK), stored at room temperature, protected from light, and processed within 2 h. PBMCs were isolated by density gradient centrifugation (400 × g, 30 min) with separation medium (Histopaque® - 1077). After isolation, PBMCs were stained with Trypan blue and counted using a hemocytometer.\nThe comet assay is a sensitive technique for measuring DNA damage at the level of the individual eukaryotic cell. It is based upon the fact that denatured cleaved DNA fragments, or damaged DNA, migrate out of the cell at a different rate during electrophoresis than undamaged DNA [32]. Damaged DNA creates a “comet tail,” while the undamaged DNA remains within the cell membrane creating the “comet head.” The Comet assay is most commonly run under alkaline conditions to detect single and double-stranded DNA breaks.\nPBMCs were isolated as previously described and then cultivated in PB-MAX™ Karyotyping Medium and incubated for 24 h at 37 ^∘C. […] Positive and negative controls were also set up equally. Treated cells were incubated at 37 ^∘C for 3 h and then centrifuged at 800 rpm (120 × g) for 5 min. The supernatant was removed and the cells were subsequently resuspended.\nIn a tube containing 120 µL of 0.7% LMPA, 80 µL of the sample was added for each tested concentration and controls. Prepared samples were applied to slides precoated with a 1% NMPA and covered with coverslips. After gel polymerization, coverslips were removed and slides were immersed in lysis buffer overnight at 4 ^∘C. Afterward, slides were washed with distilled water and placed into the electrophoresis tank with an electrophoresis solution (200 mM Na2EDTA, 10 M NaOH, and distilled water, pH > 13) for 20 min, followed by 20 min of electrophoresis (1 V/cm). After electrophoresis, slides were gently rinsed in the following sequences: phosphate-buffered saline (PBS) for 5 min, 70% (V/V) ethanol for 5 min, and finally 96% (V/V) ethanol for 15 min.\nPrior to the fluorescent microscope analysis (U-MNU2; Olympus BX51, Tokyo, Japan), slides were rehydrated and stained with DAPI (1 µg/mL). DNA damage in treated cells was evaluated using Comet Assay IV software (Instem LSS Ltd., Staffordshire, UK), by measuring tail intensity (TI%), the percent of DNA in the tail of comets. For each concentration, as well as for positive and negative controls, at least 200 comets were analyzed. The Minimum Information for Reporting Comet Assay (MIRCA) protocol was used to report the results."}, "PBMCs [2]": {"test_system": "PBMCs", "assay": "Cytokinesis block micronucleus cytome (CBMN-cyt) assay", "assay_type": "cell-based, human", "design": "unit not given here", "from_the_text": "DNA damage events were scored specifically in once-divided binucleated (BN) cells and included micronuclei (MNi), a biomarker of chromosome breakage and/or whole chromosome loss, nucleoplasmic bridges (NPBs), a biomarker of DNA misrepair and/or telomere end-fusions, and nuclear buds (NBUDs), a biomarker of elimination of amplified DNA and/or DNA repair complexes. Cytostatic and cytotoxic effects were examined by calculating the nuclear division index (NDI) and nuclear division cytotoxicity index (NDCI) based on the proportion of mono-, bi-, and multinucleated cells and necrotic and/or apoptotic cell ratios, respectively.\nWhole blood, 400 µL per each treatment, was cultured in PB-MAX™ Karyotyping Medium for 72 h at 37 ^∘C. […] Untreated cultures were set up as negative controls. Cytochalasin B was added to the final concentration of 4.5 µg/mL to block cytokinesis.\nAfter the cultivation period, cultures were centrifuged for 10 min at 1000 rpm (188 × g) and subjected to hypotonic treatment with 0.56% KCl and centrifuged immediately after the hypotonic addition. Hypotonic treatment was followed by three fixations in ice-cold glacial acetic acid + ethanol (1:3) fresh fixative. The fixed lymphocyte solution was dropped on coded microscope slides. Air-dried slides were stained in 5% Giemsa for 7 min. […] Frequencies of mononuclear, binuclear, trinuclear, and quadrinuclear cells, as well as apoptotic and necrotic cells, were scored in a total number of at least 500 cells. All genotoxicity and cytotoxicity parameters were recognized according to the criteria given by Fenech."}},
  "note": "Marks after values point to notes of the source that are not given here.",
  "data": [
    {"smiles": "CN(C)CCOC(c1ccccc1)c1ccccc1.Cn1c(=O)c2[nH]c(Cl)nc2n(C)c1=O", "note": "[DMH, 2-benzhydryloxy-N,N-dimethylethanamine; 8-chloro-1,3-dimethyl-7H-purine-2,6-dione]", "values": [
      {"measurement": "Tail intensity (mean ± SD)", "setting": "PBMCs [1]; concentration of DMH 36.36 ng/mL", "value": "2.51 ± 1.77", "unit": "%"},
      {"measurement": "Tail intensity (mean ± SD)", "setting": "PBMCs [1]; concentration of DMH 54.55 ng/mL", "value": "2.83 ± 1.54", "unit": "%"},
      {"measurement": "Tail intensity (mean ± SD)", "setting": "PBMCs [1]; concentration of DMH 72.73 ng/mL", "value": "3.44 ± 1.13", "unit": "%"},
      {"measurement": "Tail intensity (mean ± SD)", "setting": "PBMCs [1]; concentration of DMH 90.91 ng/mL", "value": "3.47 ± 1.08", "unit": "%"},
      {"measurement": "Tail intensity (mean ± SD)", "setting": "PBMCs [1]; concentration of DMH 109.9 ng/mL", "value": "3.59 ± 0.79", "unit": "%"},
      {"measurement": "BN cells with MNi (mean ± SD)", "setting": "PBMCs [2]; DMH 72.73 ng/mL", "value": "4 ± 1.25^a"},
      {"measurement": "BN cells with MNi (mean ± SD)", "setting": "PBMCs [2]; DMH 90.91 ng/mL", "value": "5.75 ± 1.92"},
      {"measurement": "BN cells with MNi (mean ± SD)", "setting": "PBMCs [2]; DMH 109.09 ng/mL", "value": "6.5 ± 2.34"}
    ]}
  ]
}
